Active and inactive are the calls of the source.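 The calls were made as follows: active = at least one rat sex group has a carcinogenic potency value and tumor site recorded; inconclusive = only rat studies were judged inadequate by the national testing program; inactive = no potency or tumor site, with negative rat experiments.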
System: rat chronic carcinogenicity bioassay, TD50
Experiment: DSSTox (CPDBAS) Carcinogenic Potency Database Summary Rat Bioassay Results
Settings: for Potency: stronger effect = lower value; for outcome: TD50_Rat_Note: no positive results
Description: The Carcinogenic Potency Database (CPDB) is a unique and widely used international resource of the results of over 6500 chronic, long-term animal cancer tests on over 1500 chemical substances. The CPDB provides easy access to the bioassay literature, with qualitative and quantitative analyses of both positive and negative experiments that have been published over the past 50 years in the general literature and by the National Cancer Institute/National Toxicology Program. The CPDB standardizes the diverse literature of cancer bioassays that vary widely in protocol, histopathological examination and nomenclature, and in the published author's choices of what information to provide in their papers. Results are reported in the CPDB for tests in rats, mice, hamsters, dogs, and nonhuman primates, and are based on the most positive result among all experiments for each sex-species. The DSSTox CPDBAS (all species) file incorporates data from the CPDB Summary Tables for the full list of over 1500 chemical substances tested in at least one species. Summary bioassay results for Rat (TD50, tumor sites, male, female, both sexes) are provided in the CPDB Summary Tables and the DSSTox CPDBAS file for over 1200 chemical substances.
TD50 is a standardized quantitative measure of carcinogenic potency (analogous to an LD50) and is reported in the CPDB Summary Table for each species. Activity Score for actives is computed by mapping of LOG10 (1/TD50_Rat_mmol) activity values spanning range [MIN, MAX] onto Integer 1-100 Activity Score range, where 100 is highest potency and 1 is lowest: Activity Score = 100 * INTEGER[(log10(1/Activity) - MIN)/(MAX - MIN)]. If activity is reported but no TD50_Rat_mmol value is computed, such as for a mixture, the Activity Score is assigned the activity value "50". […] Target sites are reported for each sex-species group with a positive result in the CPDB on the basis of a positive author's opinion for the particular site, using all results from both the general literature and NCI/NTP bioassays. If a chemical has two or more target sites listed, the results may be from different experiments, and a single site may be a target organ in more than one experiment, as well. Blank entry in TargetSites field indicates no results reported.

[1] = TargetSites_Rat_Female: no positive results

`O=C1C2CC=CCC2C(=O)N1SC(Cl)(Cl)C(Cl)Cl` (stereo not drawn) gave a Potency (TD50_Rat_Note: TD50 is harmonic mean of more than one positive test, greater than ten-fold variation among TD50 values for positive res, TargetSites_Rat_Female: kidney, liver, mammary gland) of 73.4 mg/kg/day.

For `C[As](=O)(O)O`, the outcome [1] was “inactive; no positive results”.

For `NC(=O)Nc1ccc([As](=O)(O)O)cc1`, the outcome [1] was “inactive; no positive results”.

`CN(N=O)C(=N)N[N+](=O)[O-]` gave a Potency (TD50_Rat_Note: TD50 is harmonic mean of more than one positive test, greater than ten-fold variation among TD50 values for positive res, TargetSites_Rat_Female: small intestine, stomach) of 0.803 mg/kg/day.

`C[As](C)(C)=O` showed a Potency of 24.1 mg/kg/day.

`COP(=S)(OC)SCCNC(C)=O` was tested, and the outcome [1] was “inactive; no positive results”.

For `O[C@@H]([C@H](O)[C@H](O)CNCCCl)[C@H](O)CNCCCl`, the outcome was “inactive; no positive results”.

`COP(=O)(OC)N1CCOCC1` was tested, and the Potency (TD50_Rat_Note: TD50 is harmonic mean of more than one positive test, TargetSites_Rat_Female: hematopoietic system) was 614 mg/kg/day.

— PubChem BioAssay AID1208 (EPA DSSTox, 2008)
